# Experimental data from PubChem BioAssay AID1259310 (The Scripps Research Institute Molecular Screening Center, 2017).
# Chains of the proteins cited; added tags and fusions are not shown. Lines headed by an entry give the natural chain unless they say otherwise; changes in a name come on top.
# UniProt Q969H0, whole entry, stated change not applied: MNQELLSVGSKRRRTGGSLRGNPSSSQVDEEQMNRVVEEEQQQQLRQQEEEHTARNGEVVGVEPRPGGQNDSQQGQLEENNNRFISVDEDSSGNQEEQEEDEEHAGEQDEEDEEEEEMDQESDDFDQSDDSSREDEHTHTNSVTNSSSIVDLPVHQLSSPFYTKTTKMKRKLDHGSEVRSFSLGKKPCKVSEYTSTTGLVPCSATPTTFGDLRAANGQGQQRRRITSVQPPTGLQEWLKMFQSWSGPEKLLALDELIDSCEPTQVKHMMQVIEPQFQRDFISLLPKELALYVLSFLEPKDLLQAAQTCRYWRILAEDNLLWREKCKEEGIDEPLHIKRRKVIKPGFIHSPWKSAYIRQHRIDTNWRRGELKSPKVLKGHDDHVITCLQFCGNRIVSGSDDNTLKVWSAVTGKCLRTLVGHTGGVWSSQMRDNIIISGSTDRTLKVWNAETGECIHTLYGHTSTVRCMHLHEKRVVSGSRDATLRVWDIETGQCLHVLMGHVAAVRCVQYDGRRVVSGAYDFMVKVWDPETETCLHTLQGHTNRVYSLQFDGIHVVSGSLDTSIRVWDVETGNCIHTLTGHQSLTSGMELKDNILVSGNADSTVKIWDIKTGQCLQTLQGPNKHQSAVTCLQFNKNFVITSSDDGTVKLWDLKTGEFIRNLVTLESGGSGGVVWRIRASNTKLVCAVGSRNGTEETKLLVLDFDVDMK
# Only a part is listed here, and it is no random draw. Activity calls are given as the source filed them. Cut-off read from the data, not from the text of the source: active = normalized activity above about 1.9%; inactive = the rest.
# Biological target: F-box/WD repeat-containing protein 7 (Homo sapiens) (UniProt Q969H0)
# Test: FBW7 E3 ligase activators, primary screen, biochemical, AlphaScreen, human (AID 1259310);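 note: purified mutant Fbw7 with reduced substrate affinity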
# Settings: AlphaScreen FBW7–phospho-cyclin E peptide binding, activator screen; at 26.1 µM; hits give high values
row,Compound,normalized activity (activation)
1,CN1CCC(Nc2ccc(F)c(Cl)c2)CC1,inactive: 0.64%
2,CC(C)(C)OC(=O)N1CCC(Nc2ccc(F)cc2F)CC1,inactive: 0.12%
3,Fc1ccc(NC2CCN(Cc3ccccc3)CC2)cc1F,inactive: 0.04%
4,O=C(O)C1(Nc2ccccc2)CCN(Cc2ccccc2)CC1,inactive: -0.02%
5,CCCOc1ccc(C(=O)NCC2(N(C)C)CCCCC2)cc1,inactive: -0.17%
6,COc1cc(OC)cc(C(=O)NCC2(N3CCOCC3)CCCCC2)c1,inactive: 0.12%
7,CCC(CO)(C(=O)OC1CN2CCC1CC2)c1ccccc1 (centres undefined),inactive: -0.14%
8,CN1CCC(Nc2ccc(Cl)cc2)CC1,inactive: 0.75%
9,COc1ccc(NC2CCN(Cc3ccncc3)CC2)cc1,inactive: 0.39%
10,CN(C)C1(CNC(=O)c2cc(=O)[nH]c3ccccc23)CCCCC1,inactive: 0.01%
11,CCCN1CCC(Nc2ccc(Cl)cc2)CC1,inactive: 0.38%
12,CC1CN(Cc2ccccc2)CCC1=O (centres undefined),inactive: 0.28%
13,[C-]#N.[K+].c1ccc2c(c1)OCCOCCOc1ccccc1OCCOCCO2,inactive: -0.18%
14,CN(C)C1(CNC(=O)c2cc3c(s2)CCC3)CCCCC1,inactive: -0.12%
15,CN1CCC(Nc2ccccc2Cl)CC1,inactive: 0.03%
16,Fc1cccc(NC2CCN(CCc3ccccc3)CC2)c1,inactive: -0.16%
17,Clc1ccc(NC2CCN(Cc3ccccc3)CC2)cc1,inactive: 0.28%
18,CCOP(=O)(OCC)SCC(=O)N(CC)CC,inactive: 0.14%
19,CCN1CCC(Nc2ccc(F)cc2)CC1,inactive: 0.01%
20,CC1CN(C)C(C)CC1Nc1ccccc1 (centres undefined),inactive: -0.07%
21,O=C(NCC1(N2CCCCC2)CCCCC1)c1ccc([N+](=O)[O-])s1,inactive: 0.02%
22,CN1CCC(Nc2ccccc2F)CC1,inactive: -0.11%
23,CC(C)(C)OC(=O)N1CCC(Nc2ccc(Cl)cc2Cl)CC1,inactive: -0.06%

row,Compound,normalized activity (activation)
1,N#Cc1ccc(C(=O)NCC2(N3CCCCC3)CCCCC2)cc1,inactive: 0.26%
2,CC(=O)N1CCN(C/C=C/c2ccccc2[N+](=O)[O-])CC1,inactive: -0.02%
3,COc1ccc(CCN2CCC(Nc3ccc(OC)cc3)CC2)cc1,inactive: 0.51%
4,COc1cccc(OC)c1CN1CCC(=O)CC1,inactive: 0.17%
5,CCCN1CCC(Nc2cc(OC)cc(OC)c2)CC1,inactive: 0.25%
6,c1ccc(CN2CCC(Nc3ccccc3)CC2)cc1,inactive: 0.21%
7,COc1cc(C(=O)NCC2(N3CCOCC3)CCCCC2)cc(OC)c1C,inactive: 0.3%
8,NC(=O)C1(Nc2ccccc2)CCN(Cc2ccccc2)CC1,inactive: -0.04%
9,COc1ccc(C(=O)NCC2(N3CCOCC3)CCCCC2)cc1OC,inactive: 0%
10,CCOC(=O)N1CCC(Nc2ccc(C)cc2)CC1,inactive: 0.05%
11,O=C(NCC1(N2CCOCC2)CCCCC1)c1ccc2c(c1)OCO2,inactive: 0.07%
12,O=C1CCN(CCc2ccccc2)CC1,inactive: 0.46%
13,CN1CCC(Nc2ccc(F)cc2)CC1,inactive: 0.07%
14,CCOC(=O)N1CCC(Nc2ccc(Cl)cc2)CC1,inactive: 0.09%
15,Cc1ccc(C(=O)O)cc1N(CCCl)CCCl,inactive: 0.22%
16,FC(F)(F)Oc1ccc(NC2CCNCC2)cc1,inactive: -0.03%
17,COc1ccc(CN(CCCl)CCCl)cc1Cl,inactive: 0%
18,COc1cc(OC)c(C(=O)NCC2(N(C)C)CCCCC2)cc1OC,inactive: 0%
19,COc1cccc(OC)c1CN1CCC(Nc2ccccc2)CC1,inactive: -0.23%
20,CN1CCC(Nc2cccc(F)c2)CC1,inactive: -0.17%
21,O=C(NCC1(N2CCCCC2)CCCCC1)c1cncc(Br)c1,inactive: 0.51%
22,Cc1cc(C(=O)NCC2(N3CCOCC3)CCCCC2)c2ccccc2n1,inactive: -0.01%
23,CCN1CCC(Nc2ccccc2F)CC1,inactive: -0.04%

row,Compound,normalized activity (activation)
1,CCCOc1ccc(C(=O)NCC2(N(C)C)CCCCC2)cc1OC,inactive: -0.07%
2,COc1ccc(CCN2CCC(N(Cc3ccco3)C(C)=O)CC2)cc1,inactive: 0.01%
3,CCN1CCC(Nc2ccc(Cl)cc2)CC1,inactive: 0.02%
4,O=C(NCC1(N2CCCCC2)CCCCC1)c1cccc([N+](=O)[O-])c1,inactive: -0.06%
5,COc1ccc(NC2CCN(CCc3cccs3)CC2)cc1,inactive: -0.26%
6,O=C(NCC1(N2CCOCC2)CCCCC1)c1cc(=O)[nH]c2ccccc12,inactive: -0.09%
7,COc1ccccc1/C=C/CN1CCN(C(C)=O)CC1,inactive: -0.12%
8,CN1CCN(CCOC(=O)C(O)(c2ccccc2)c2ccccc2)CC1,inactive: -0.11%
9,O=C1CCN(Cc2ccccc2)CC1,inactive: 0.04%
10,CCCN1CCC(Nc2ccc(F)cc2)CC1,inactive: 0.11%
11,CC(=O)N1CCc2ccc(N(C(=O)C(C)(C)C)C3CCN(Cc4ccccc4)CC3)cc21,inactive: -0.05%
12,CN(C)P(=O)(OC(C)(C)C(Cl)(Cl)Cl)SCCCCl (centres undefined),inactive: 0.37%
13,CCOC(=O)N1CCC(Nc2ccc(F)cc2)CC1,inactive: -0.01%
14,COc1ccc(NC2CCN(CCc3ccccn3)CC2)cc1,inactive: 0.7%
15,CCOC(=O)N1CCC(Nc2cccc(C)c2)CC1,inactive: -0.09%
16,COc1cccc(CN(CCCl)CCCl)c1,inactive: 0.03%
17,COc1ccc(C(=O)NCC2(N3CCCCC3)CCCCC2)c(OC)c1OC,inactive: -0.01%
18,CCCN1CCC(Nc2ccc(OC)c(OC)c2)CC1,inactive: -0.05%
19,COc1ccc(C(=O)NCC2(N3CCCCC3)CCCCC2)cc1,inactive: -0.2%
20,CN(CCOC(=O)C(O)(c1ccccc1)c1ccccc1)C(C)(C)C,inactive: 1.15%
21,N#CC1(Nc2ccccc2)CCN(Cc2ccccc2)CC1,inactive: 0.27%
22,CC1CN(CCc2ccccc2)CCC1=O (centres undefined),inactive: -0.02%
23,CCOC(=O)N1CCC(Nc2ccc(OC)cc2)CC1,inactive: -0.02%
